Patent US10759795B2, “Aza-A-ring indenoisoquinoline topoisomerase I poisons” (Purdue Research Foundation, priority 2016, dated 2020)

Assays:
[1] = tested on: 60 human cancer cell lines; assay: NCI-60 single-dose cytotoxicity assay; format: cell-based; settings: mean-graph midpoint of percent growth of 60 human cancer cell lines, 10 μM drug, 48 h, relative to no-drug control and time zero
Experimental: The new indenoisoquinolines were evaluated for cancer cell growth inhibitory activities. The National Cancer Institute's NCI-60 cytotoxicity assay measures the ability of test agents to inhibit the growth of approximately 60 different cancer cell lines. In the initial single-dose assay, cells are treated with a 10 μM dose of test agent. The growth of treated cells versus untreated cells is then compared. If a test agent induces a sufficiently low mean growth percent, it is promoted to five-dose testing to determine a mean graph midpoint (MGM) GI50 value. In five-dose testing, cells are treated with test agent concentrations ranging from 10^−8 to 10^−4 M. The concentration required to achieve 50% growth inhibition in a particular cell line is calculated. In situations in which this value is greater than 100 μM or less than 0.01 μM, it is recorded as 100 μM and 0.01 μM, respectively. The values for each of the tested cell lines are averaged to obtain a mean graph midpoint (MGM) GI50 value. MGM GI50 values are often, but not always, determined from two separate rounds (Table 1).

recombinant human TDP2 = molecular target: T1, recombinant human TDP2 (Homo sapiens, UniProt O95551); assay: Recombinant TDP2 assay; format: biochemical; settings: recombinant human TDP2, gel-based; read-out: TDP2: IC50 values for the inhibition of TDP2
T1 sequence (O95551 1-362): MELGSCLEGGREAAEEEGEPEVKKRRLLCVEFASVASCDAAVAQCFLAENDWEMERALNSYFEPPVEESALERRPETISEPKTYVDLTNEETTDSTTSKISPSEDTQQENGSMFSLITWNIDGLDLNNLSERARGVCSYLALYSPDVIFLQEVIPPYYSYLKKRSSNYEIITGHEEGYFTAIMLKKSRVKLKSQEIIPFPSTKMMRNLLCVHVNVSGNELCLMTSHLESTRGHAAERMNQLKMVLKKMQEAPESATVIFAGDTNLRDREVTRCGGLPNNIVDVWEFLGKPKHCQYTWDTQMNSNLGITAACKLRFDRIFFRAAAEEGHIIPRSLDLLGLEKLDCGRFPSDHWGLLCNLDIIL
Experimental: TDP2 reactions were carried out as described previously with the following modifications (Gao, R., et al., J. Biol. Chem. 2012, 287, 30842-30852). The 19-mer single-stranded oligonucleotide DNA substrate containing a 5′-phosphotyrosine (Y19, α^32P-cordycepin-3′-labeled) was incubated at 1 nM with 25 pM recombinant human TDP2 in the absence or presence of inhibitor for 15 min at room temperature in the LMP2 assay buffer containing 50 mM Tris-HCl, pH 7.5, 80 mM KCl, 5 mM MgCl2, 0.1 mM EDTA, 1 mM DTT, 40 μg/mL BSA, and 0.01% Tween 20. Reactions were terminated and treated similarly to recombinant TDP1 reactions.
TDP2, as opposed to TDP1, cleaves the phosphotyrosyl linkage in 5′-phosphotyrosyl-DNA oligonucleotides.

**Q.** Which results are given for `CN(C)CCCn1c2c(c3ccncc3c1=O)C(=O)c1ccccc1-2` [Compound 46, 3-Aza-5,6-dihydro-6-(3-(dimethylamino)propyl)-5,11-dioxo-11H-indeno[1,2-c]isoquinoline]?
**A.** Mean Growth % [1]: −9.25%; IC50 (recombinant human TDP2): 80 µM
